BindingDB's records for doi:10.1002/cbic.201300187 (The Johns Hopkins University, 2013)

Target: T1, 1-deoxy-D-xylulose-5-phosphate synthase (Escherichia coli (strain K12), UniProt P77488)
T1 sequence (P77488 whole entry): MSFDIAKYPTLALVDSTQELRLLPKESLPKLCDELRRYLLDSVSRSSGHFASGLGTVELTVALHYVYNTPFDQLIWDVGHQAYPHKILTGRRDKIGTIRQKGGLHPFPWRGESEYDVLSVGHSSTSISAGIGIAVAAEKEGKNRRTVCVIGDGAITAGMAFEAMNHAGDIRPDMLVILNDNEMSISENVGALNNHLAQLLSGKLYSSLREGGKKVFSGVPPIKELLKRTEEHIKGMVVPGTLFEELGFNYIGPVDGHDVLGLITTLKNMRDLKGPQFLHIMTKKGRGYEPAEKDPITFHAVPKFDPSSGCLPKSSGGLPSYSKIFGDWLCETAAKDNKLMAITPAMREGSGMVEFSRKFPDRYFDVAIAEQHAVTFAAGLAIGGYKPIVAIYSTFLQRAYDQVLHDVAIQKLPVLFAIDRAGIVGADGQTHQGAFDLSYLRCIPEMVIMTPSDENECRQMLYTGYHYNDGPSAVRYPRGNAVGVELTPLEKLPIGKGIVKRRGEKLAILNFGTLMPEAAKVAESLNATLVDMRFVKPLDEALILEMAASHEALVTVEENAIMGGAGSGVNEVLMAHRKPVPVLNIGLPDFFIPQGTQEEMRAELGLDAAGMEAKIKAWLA
Assay: DXP Synthase Inhibition Assay
Conditions: pH 8; 37 °C
Protocol: Reaction mixtures containing HEPES (100mM, pH 8.0, 2mM MgCl2, 5mM NaCl), ThDP (1mM), BSA (1mg/mL), DMSO (10%, v/v), ᴅ-GAP (30µM), pyruvate (80µM), and various concentrations of nitroso inhibitor were preincubated at 37°C for 5 min. Enzyme reactions were initiated by addition of DXP synthase (0.1µM). Aliquots (150µL) of the enzymatic mixture were removed between 0.5 and 3 min and quenched in ice-cold methanol (150µL).

For `Cc1ccccc1N=O` [1‐methyl‐2‐nitrosobenzene (Substrate 3)], the IC50 was 291 µM.
